Data from US20220184176A1.

Biological target: human DNM2 (recombinant, produced in Sf9 insect cells with the baculovirus system) (human) (UniProt P50570)
Assay: cell-based or functional assay

- mean liposome diameter after incubation with DNM2+GTP and BIN1: 108
Substance: GST-BIN1 (recombinant human BIN1, full length isoform 8, with GST tag, produced in E. coli) (from UniProt O00499 2-593)
